Binding of CDR-mutated scFvs to a peptide of the spike HR2 region

Source: Engelhart et al. 2022 (doi:10.1038/s41597-022-01779-4), MIT Lincoln Laboratory and A-Alpha Bio; data file from the FLAb repository.

Antigen: PDVDLGDISGINAS, a 14-residue peptide of the SARS-CoV-2 spike HR2 region.

Parent: Ab-95, a human scFv built as VH, a (GGGGS)3 linker, VL. Only the CDRs of the light chain vary.
VH: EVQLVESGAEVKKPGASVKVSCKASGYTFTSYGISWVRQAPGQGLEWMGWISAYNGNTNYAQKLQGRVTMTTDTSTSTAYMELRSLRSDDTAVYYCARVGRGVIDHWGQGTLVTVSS
VL: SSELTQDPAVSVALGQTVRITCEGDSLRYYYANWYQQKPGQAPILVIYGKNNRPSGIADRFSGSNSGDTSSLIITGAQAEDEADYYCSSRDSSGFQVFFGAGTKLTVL

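Variants in AAYL52 differ from the parent at up to three CDR positions; double and triple changes were sampled at random. Affinity was read by AlphaSeq, a pooled yeast mating assay with surface-displayed partners. Mating (16 h, 30 °C) was followed by selection of diploids and sequencing of their barcodes. Read counts were normalised to the haploid input and turned into Kd by a linear fit to BCL2-family pairs of known affinity, for each replicate. Mating was done three times.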

Variants are written as CDR1, CDR2 and CDR3 of the light chain (limits as in the source). Parent: EGDSLRYYYAN, GKNNRPS, SSRDSSGFQVF.
This list gathers variants with a substitution at D25 (VL, numbered from residue 1).
Scale: log10 of Kd in nM, estimated from mating counts; low values are strong binders.
Replicates are averaged; those with no signal do not enter the mean.
"no signal" marks a missing value. The strain was present, yet no cells mated with the target were sequenced in any replicate, which points to weak or no binding.
For reference, the parent read 2.31 as the reference entry and 2.25 as a member of this library.
Background: pairings of library AAYL52 with three empty control strains gave a value in 28% of cases (median 3.91, 5th percentile 2.90). Values in that range, when seen in few replicates, are hard to tell from nonspecific mating.

Variant EGRSLRVYYAN / GKNNRPS / SSRLSSGFQVF gave 3.49 (2 of 3 replicates). For EGYSLRYYYAN / GKNNRPS / SSRPSSPFQVF, the assay gave 4.34 (2 of 3 replicates). Variant EGFSLRYYYAN / GKKNRPS / SSRDSSGFQVF gave 3.87 (1 of 3 replicates). Variant EGMSLRYYYAN / GYNNRPS / SSRDSSGFQCF showed 2.71 (1 of 3 replicates). With EGFSLRYYCAN / GKNNRPS / SSRDSSGFQVD the result was 3.14 (3 of 3 replicates). Variant IGSSLRYYYAN / GKNNRPS / SSRDSSGFQVF showed 2.54 (3 of 3 replicates). With EGHSLRYAYAN / GKNNRPQ / SSRDSSGFQVF the result was 0.95 (3 of 3 replicates). Variant EGVSLRYYYAN / GKNNRPP / SSRDSNGFQVF showed 2.87 (3 of 3 replicates). Variant EGTSLRYYYAN / GKNNRHS / SSRDSSGFQVW showed no signal (0 of 3 replicates).

Variant EGPSLRYYYAN / GKNNRGS / SSRDSSGFQVP showed 2.78 (3 of 3 replicates). With EGLSLRYYYAN / GKNNRPE / SSRDSSGFQVF the result was 1.63 (3 of 3 replicates). Variant EGSSLRYGYAN / GKNNRPS / SSRDSSGFLVF gave 1.10 (3 of 3 replicates). Variant EGPSLRYYYAN / GKNNRPS / SSRDSSGFQVF gave 1.92 (3 of 3 replicates). For EGMSLRYMYAN / GKNNRPS / LSRDSSGFQVF, the assay gave 4.12 (3 of 3 replicates). With EGISLRYYYAN / GKNVRPS / SSRDSSGFQVF the result was 2.16 (3 of 3 replicates). Variant EEVSLRYYYAN / GKNNRPS / SSRDSSGFWVF showed 4.52 (2 of 3 replicates). Variant EGQSLRYYYMN / GKDNRPS / SSRDSSGFQVF showed 4.07 (1 of 3 replicates). Variant EGCSLRYYYAN / GKNNRES / SSRDSTGFQVF showed 3.56 (3 of 3 replicates).

Variant EGCWLRYYYAN / GKNNRPS / SSRDSEGFQVF gave 5.32 (2 of 3 replicates). Variant EGKSLRYYYAN / GDNRRPS / SSRDSSGFQVF showed 2.03 (3 of 3 replicates). Variant EGCSLRYYYVN / GDNNRPS / SSRDSSGFQVF showed 2.01 (3 of 3 replicates). Variant EGPSLRYYYAN / GKNNGPS / SSRDSEGFQVF gave 3.00 (3 of 3 replicates). Variant PGVSLRYYYAN / GKNNRPS / SSEDSSGFQVF gave 1.32 (3 of 3 replicates). Variant CGYSLVYYYAN / GKNNRPS / SSRDSSGFQVF showed no signal (0 of 3 replicates). For EGASLRYYCAN / GKNNRPS / SSRDSSGFQVF, the assay gave 2.36 (3 of 3 replicates). With EGKSLRYYYAN / GKRNRPS / STRDSSGFQVF the result was 4.14 (2 of 3 replicates). Variant EGKSLRYCYAN / GKNNRPS / SCRDSSGFQVF showed 1.37 (3 of 3 replicates).

Variant VDLSLRYYYAN / GKNNRPS / SSRDSSGFQVF showed no signal (0 of 3 replicates). Variant EGFSLRYYPAN / GKNNRPS / SSRDSSGFQVN showed 1.90 (3 of 3 replicates). With EGKSIRYYYAN / GKNNRPR / SSRDSSGFQVF the result was 3.71 (3 of 3 replicates). For EGFSLRYYYAN / HKNNRPS / SSRDSSGFQVF, the assay gave 2.99 (1 of 3 replicates). For EGQSLCYYLAN / GKNNRPS / SSRDSSGFQVF, the assay gave 2.59 (3 of 3 replicates). With KGISLRYYYAN / GKNNRPS / SMRDSSGFQVF the result was 3.38 (3 of 3 replicates). For EGMSLRYYYAN / GKNNRPS / SSYDSSGFQVF, the assay gave 2.21 (3 of 3 replicates). With EGKSLRYYYAN / GKNVRPS / SSRDSSLFQVF the result was 4.19 (2 of 3 replicates). For EGGSLRYYYAN / IKNSRPS / SSRDSSGFQVF, the assay gave no signal (0 of 3 replicates).

With EGNSLRYYYAN / GKNNRPS / SSRPSSGFQPF the result was 2.44 (3 of 3 replicates).

The 5 strongest on average among those seen in every replicate, once more:

Variant EGHSLRYAYAN / GKNNRPQ / SSRDSSGFQVF showed 0.95 (3 of 3 replicates).
Variant EGSSLRYGYAN / GKNNRPS / SSRDSSGFLVF showed 1.10 (3 of 3 replicates).
Variant PGVSLRYYYAN / GKNNRPS / SSEDSSGFQVF showed 1.32 (3 of 3 replicates).
Variant EGKSLRYCYAN / GKNNRPS / SCRDSSGFQVF showed 1.37 (3 of 3 replicates).
Variant EGLSLRYYYAN / GKNNRPE / SSRDSSGFQVF showed 1.63 (3 of 3 replicates).